Measurements published in article PMC4412257, “2′,6′-Dimethylphenylalanine: A Useful Aromatic Amino Acid Surrogate for Tyr or Phe Residue in Opioid Peptides” (International Journal of Medicinal Chemistry, 2012).

Tested on: δ-opioid receptor
Assay: δ-opioid receptor binding, brain homogenate, versus [3H]DT
Set-up: species or system rat
Conditions: Table 1; ratio of Ki values

## Tyr-Gly-Gly-Phe-Leu [ENK, reference compound]
  μ/δ: 1.69
